Source: paper PMC2633459 (Molecular Vision, 2009)

Target: T1, wild type human βA3-crystallin (human, UniProt P05813 1-215)
T1 construct: human βA3-crystallin, wild type, recombinant; no tag is mentioned; also called WT βA3; βA3 WT; source: E. coli, purified (successive ion-exchange chromatography)
T1 sequence (looked up): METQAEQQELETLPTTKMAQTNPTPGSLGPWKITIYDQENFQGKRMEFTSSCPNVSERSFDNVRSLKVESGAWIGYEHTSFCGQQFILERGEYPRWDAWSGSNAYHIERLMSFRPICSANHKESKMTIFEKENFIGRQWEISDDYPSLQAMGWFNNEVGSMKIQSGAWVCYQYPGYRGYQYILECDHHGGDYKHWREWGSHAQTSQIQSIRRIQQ
Experiment: SEC-MALS; 1:1 molar ratio of βA3 (WT or DM) with βB1 or βB2, final 0.4–0.5 mg/ml, incubated at 37 °C for 90 min (time course 30–300 min); pH 6.8 phosphate, 100 mM KCl, 1 mM EDTA, 1 mM DTT; peak fractions checked by SDS-PAGE
Conditions: both partners purified

B1: wild type human βB2-crystallin (natural protein, UniProt P43320 1-205, looked up)
chain: MASDHQTQAGKPQSLNPKIIIFEQENFQGHSHELNGPCPNLKETGVEKAGSVLVQAGPWVGYEQANCKGEQFVFEKGEYPRWDSWTSSRRTDSLSSLRPIKVDSQEHKIILYENPNFTGKKMEIIDDDVPSFHAHGYQEKVSSVRVQSGTWVGYQYPGYRGLQYLLEKGDYKDSSDFGAPHPQVQSVRRIRDMQWHQRGAFHPSN
notes: human βB2-crystallin, wild type, recombinant; source: E. coli, purified (successive ion-exchange chromatography)
**Q.** Does B1 bind?
**A.** binds
